# Results as given in patent publication US11642339B2 (THERAVANCE BIOPHARMA R&D IP, LLC, priority 2017, dated 2023).
# Where two headings read alike, the source gives them in different places.
# Experiments:
# [1] = test system: coronary artery tone; details: across multiple species including human
# [2] = test system: patients with diabetic or idiopathic gastroparesis; details: Phase 2a; 5, 15, 30 mg once daily, 1-week periods
# [3] = test system: subjects with diabetic or idiopathic gastroparesis
# [4] = test system: platelet aggregation; assay: Off-target: platelet aggregation
substance,measurement,setting,value
"1-isopropyl-2-oxo-1,2-dihydroquinoline-3-carboxylic acid {(1S,3R,5R)-8-[(R)-2-hydroxy-3-(methanesulfonyl-methyl-amino)propyl]-8-azabicyclo[3.2.1]oct-3-yl}amide [Velusetrag]",effects on coronary artery tone,[1],no effects
same,tolerability,[2],well tolerated
same,"Subjects who did not complete study treatment period: Adverse Event, %",[3]; 5 mg/day,(3.4) %
same,"Subjects who did not complete study treatment period: Adverse Event, %",[3]; 15 mg/day,(10.5) %
same,subjects with treatment emergent adverse events,[3]; 30 mg group,50.0%
same,"Subjects who did not complete study treatment period: Adverse Event, %",[3]; 30 mg/day,(6.9) %
same,tolerability,"[3]; DIGEST I, 12 weeks",generally well-tolerated
same,significant adverse events,"[3]; DIGEST I, 232 subjects dosed",No significant adverse events
same,effects on platelet aggregation,[4],no effects
